SMILES strings stand for the structures.

The chains behind the UniProt entries cited, without tags or fusion partners. Where a name states a change or a piece, a line headed by the entry shows the natural chain unless it says otherwise.
UniProt O00329: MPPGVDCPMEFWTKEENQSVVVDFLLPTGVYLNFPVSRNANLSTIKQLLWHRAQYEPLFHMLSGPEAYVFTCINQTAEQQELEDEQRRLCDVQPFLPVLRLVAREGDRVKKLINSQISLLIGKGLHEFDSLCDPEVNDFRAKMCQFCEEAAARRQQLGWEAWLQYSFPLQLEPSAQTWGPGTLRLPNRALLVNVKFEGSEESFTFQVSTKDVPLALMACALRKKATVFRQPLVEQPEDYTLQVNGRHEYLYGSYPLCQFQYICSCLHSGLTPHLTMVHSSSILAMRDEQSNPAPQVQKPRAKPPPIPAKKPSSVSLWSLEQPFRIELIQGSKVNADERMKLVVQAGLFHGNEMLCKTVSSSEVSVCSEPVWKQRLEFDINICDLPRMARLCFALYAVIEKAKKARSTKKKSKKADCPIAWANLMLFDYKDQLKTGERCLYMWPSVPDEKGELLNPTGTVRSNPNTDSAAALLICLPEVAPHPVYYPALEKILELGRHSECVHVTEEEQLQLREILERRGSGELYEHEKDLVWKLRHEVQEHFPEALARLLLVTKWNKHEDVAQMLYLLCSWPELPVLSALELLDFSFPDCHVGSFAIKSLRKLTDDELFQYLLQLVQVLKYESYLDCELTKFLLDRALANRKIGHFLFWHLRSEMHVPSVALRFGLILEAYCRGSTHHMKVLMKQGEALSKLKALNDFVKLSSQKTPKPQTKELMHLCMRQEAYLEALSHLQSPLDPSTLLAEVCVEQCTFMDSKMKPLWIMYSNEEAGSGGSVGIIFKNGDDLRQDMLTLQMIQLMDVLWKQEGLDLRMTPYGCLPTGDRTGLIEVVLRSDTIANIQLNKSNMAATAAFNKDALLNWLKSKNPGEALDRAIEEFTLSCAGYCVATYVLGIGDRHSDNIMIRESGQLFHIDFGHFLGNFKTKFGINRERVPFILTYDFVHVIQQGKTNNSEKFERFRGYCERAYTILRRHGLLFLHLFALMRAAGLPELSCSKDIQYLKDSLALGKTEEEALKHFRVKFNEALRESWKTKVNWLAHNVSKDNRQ

From patent US9499523B2, “Phosphatidylinositol 3-kinase inhibitors” (Gilead Sciences, Inc., priority 2014, dated 2016) come the findings set out here.

The assay concerns the target PI3Kδ (Homo sapiens (Human), UniProt O00329). In words: TR-FRET enzymatic assay of PI3K isoforms, PI3Kδ. The settings on record: read-out: PI3Kδ IC50, 2×Km ATP, 30 minutes at 25° C.

In the case of `C[C@H](Nc1nc(N)nc(N)c1Cl)c1nc2c(F)ccc(Cl)c2c(=O)n1-c1cnc(N)cn1` [Compound 1, (S)-3-(5-aminopyrazin-2-yl)-5-chlor-2-(1-((2,6-diamino-5-chloropyrimidin-4-yl)amino)ethyl)-8-fluoroquinazolin-4(3H)-one], the IC50 was found to be 26 nM.

As for `Nc1cnc(-n2c([C@@H](Nc3ncnc(N)c3Cl)C3CC3)nc3cccc(Cl)c3c2=O)cn1` [Compound 21, (S)-2-(((6-Amino-5-chloropyrimidin-4-yl)amino)(cyclopropyl)methyl)-3-(5-aminopyrazin-2-yl)-5-chloroquinazolin-4(3H)-one], the IC50 came out at 30 nM.

For orientation: IC50 means the point on the concentration scale where inhibition reaches its midpoint.
